Reference: ChEMBL document CHEMBL2331485, “Pyrimidoaminotropanes as potent, selective, and efficacious small molecule kinase inhibitors of the mammalian target of rapamycin (mTOR)” (J Med Chem, 2013)

Experiments:
Homo sapiens [1] = species on record: Homo sapiens; assay: Selectivity ratio of Ki for P13Kdelta (unknown origin) to Ki for human recombinant mTOR
Homo sapiens [2] = species on record: Homo sapiens; assay: Selectivity ratio of Ki for P13Kalpha (unknown origin) to Ki for human recombinant mTOR

CCNC(=O)Nc1ccc(-c2nc3c(c(N4CCOC[C@@H]4C)n2)C[C@@H]2CC[C@H]3N2C2COC2)cc1 showed a Ratio Ki (Homo sapiens [1]) of 4450 and a Ratio Ki (Homo sapiens [2]) of 1450.
